A value given as a limit tells only on which side of the number the result lay.

The chains behind the UniProt entries cited, without tags or fusion partners.
UniProt P53609, whole entry, looked up: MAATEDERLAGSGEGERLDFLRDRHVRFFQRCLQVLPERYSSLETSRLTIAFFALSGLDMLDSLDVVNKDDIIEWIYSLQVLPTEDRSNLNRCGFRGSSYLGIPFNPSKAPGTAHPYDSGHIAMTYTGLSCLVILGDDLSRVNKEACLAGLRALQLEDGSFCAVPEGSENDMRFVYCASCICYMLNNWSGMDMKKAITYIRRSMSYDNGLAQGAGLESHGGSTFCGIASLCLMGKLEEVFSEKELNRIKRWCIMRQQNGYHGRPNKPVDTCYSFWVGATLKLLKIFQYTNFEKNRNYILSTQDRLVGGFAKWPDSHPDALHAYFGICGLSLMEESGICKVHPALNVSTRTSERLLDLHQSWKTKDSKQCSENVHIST

Holding throughout (format): protein-complex assay
Assay [1] concerns the target T1, Protein farnesyltransferase (Homo sapiens, UniProt P49354+P49356). Kind of assay: Inhibitory activity against recombinant human farnesyltransferase.
The target in assay [2] is Protein farnesyl/geranylgeranyl transferase (Homo sapiens) (UniProt P49354+P49356+P53609). In words: Selectivity was expressed as the ratio of the Geranylgeranyl transferase type I to FPT inhibitory activities (IC50).
Assay [3] has as its target T1, Protein farnesyltransferase. Kind of assay: Inhibition of Farnesyltransferase (FPT) in FPT Ras/TCA assay. The procedure, abridged: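 Secondary FPT assay measuring transfer of [³H]farnesyl from [³H]farnesyl pyrophosphate to His₆-H-Ras-CVLS. Labelled protein was collected by TCA precipitation. IC50 values were obtained from this Ras/TCA format.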

In the case of `O=C(c1cc[n+]([O-])cc1)N1CCC(=C2c3ccc(Cl)cc3C(O)Cc3cccnc32)CC1` (stereo unspecified), in assay [1], the IC50 was determined as 32.7 µM.

For the compound `O=C(Cc1ccccn1)N1CCN(C2c3ccc(Cl)cc3CCc3cccnc32)CC1` (stereo unspecified), in assay [1], the IC50 was 0.36 µM.

In the case of `O=C(Cc1cccnc1)N1CCN(C2c3ccc(Cl)cc3CCc3cccnc32)CC1` (stereo unspecified), the IC50 in assay [1] came out at 1 µM.

Consider `CC(=O)N1CCN(c2nc(CO[C@@H]3c4cc(C(C)(C)C)ccc4S[C@@H]3Cn3ccnc3)ns2)CC1`, for which the Selectivity ratio in assay [2] is greater than 8. Also, the results for the IC50 in assay [3] and in assay [1] were 5.3 µM and 4.8 µM, respectively.
